Experimental data as given in ChEMBL document CHEMBL4371097, “Antibacterial Aromatic Polyketides Incorporating the Unusual Amino Acid Enduracididine” (J Nat Prod, 2019).

Experiments:
[1] = system: Staphylococcus aureus; details: ATCC 29213
[2] = system: Staphylococcus aureus; details: ATCC 6538P

In the case of GENTAMICIN, the MIC [1] was 0.5 µg/mL and the MIC [2] was 0.5 µg/mL.
